Measurements from patent publication US8299031B2, “Human semen enhancer of viral infection peptides (SEVI) and their use” (Viro Pharmaceuticals GmbH & Co. KG, priority 2006, dated 2012).

Assay: Congo red staining with light, polarized light and fluorescence microscopy
Assay type: physicochemical
Procedure: A few drops of the resulting activated turbid oligopeptide solution were transferred to a polylysine-coated slide and the protein solution was dried under airflow in an extractor hood. The dried protein was stained with saturated Congo red solution (in 80% ethanol and 2 M NaCl) and washed with 80% ethanol. As reference proteins and peptides, solutions of soluble, non incubated PAP(248-286) and human albumine in similar concentrations were transferred to the same slides and stained equally. […] The same slides stained with Congo red were examined by light and fluorescence microscopy. […] Staining with Congo Red and birefringence are typical criteria for fibril formation (Nilsson; 2004). In addition, by conventional fluorescence microscopy remarkable differences in colour and intensity of the SEVI fibrils (lucent orange, FIG. 6A) could be observed, in contrast to the soluble, non-activated PAP(248-286) (black, FIG. 6B) or albumine (green, FIG. 6C).
FIG. 4. Activated SEVI peptides are stainable with Congo red which is indicative for fibril formation. Upper and lower slide: a solution of activated precipitated SEVI peptides (A), non-activated, soluble SEVI (B) and albumine (C) were transferred to poly-lysine-coated slides and stained by Congo red.
FIG. 5. Activated SEVI peptides show the typical birefringence effect (double refraction) of fibrils using polarized light in light microscopy. The same Congo red-stained slides shown in FIG. 4 were used for microscopy: The solution of activated precipitated SEVI peptides (A), non-activated, soluble SEVI (B) and albumine (C).
FIG. 6. Activated SEVI peptides show remarkably differences in color and intensity using fluorescence microscopy. The same Congo Red-stained slides shown in FIG. 4 were used for microscopy: The solution of activated precipitated SEVI peptides (A), non-activated, soluble SEVI (B) and albumine (C).

albumine: human albumine used as reference protein in Congo red staining
birefringence in light microscopy using polarized light (Congo red stained slides): did not show a birefringence effect
colour in conventional fluorescence microscopy (Congo red stained slides): green
Congo Red staining (dried on polylysine-coated slide, saturated Congo red solution): blue coloration
